{"source": "patent US4469706A", "about": "“Selective beta-2 adrenergic antagonists for the treatment of glaucoma” (priority 1982, dated 1984)", "molecular_target": "rabbit ciliary process adenylate cyclase (Oryctolagus cuniculus, UniProt G1TAV7)", "assay": "Rabbit ciliary process beta-adrenergic sensitive adenylate cyclase activity", "data": [{"smiles": "CC(C)NCC(O)c1ccc(O)c(O)c1", "note": "(stereo not drawn) [Isoproterenol]", "values": [{"measurement": "EC50", "value": 360, "unit": "nM"}, {"measurement": "Adenylate Cyclase Ka, Ciliary Process Rabbit (B)", "setting": "agonists, Table I", "value": 0.36, "unit": "µM"}, {"measurement": "Maximal stimulation of ciliary process enzyme activity, of basal activity", "setting": "rabbit", "value": "331±44", "unit": "%"}]}]}
